Reference: ChEMBL document CHEMBL1150306, “2-Trifluoroacetylthiophenes, a novel series of potent and selective class II histone deacetylase inhibitors” (Bioorg Med Chem Lett, 2008)

Experiment: Inhibition of HDAC3 at 50 uM

Work on CN(Cc1ccc2nccnc2c1)C(=O)c1ccc(C(=O)C(F)(F)F)s1 yielded an inhibition of 40%.
